Results as given in PubChem BioAssay AID743247 (Broad Institute, 2014).
The entries are a selection whose mix differs from that of the whole data set. Active and inactive are the calls of the source.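 How the source made its calls: active means mean inhibition across replicates of 30% or more, regardless of how many single replicates reach that level; inconclusive means mean under 30% yet at least half of replicates reach 30%; inactive means the rest.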

Experiment: blockers of fibronectin fibrillogenesis by fibroblasts – AH1F cells, Alexa488-fibronectin fluorescence, plate reader, primary screen (AID 743247);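 further: positive control wells lacked labelled fibronectin entirely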
Conditions: Alexa488-fibronectin deposition fluorescence, overnight, at 12.6 µM, active compounds read high
Procedure, shortened: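 Material – AH1F fibroblast monolayer, labelled fibronectin deposition · Reagent – labelled fibronectin 24 nM · Timing – 1 h adhesion, overnight exposure · Measured by – fluorescence at 485 nm excitation, 525 nm emission · Read-out – inhibition of fibronectin deposition signal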

Structure (SMILES)	inhibition
CC(C)(C)C(=O)NC(Sc1ccncn1)C(Cl)(Cl)Cl (stereo unspecified)	inactive: 13%
O=[N+]([O-])c1ncn(CCn2ncnc2[N+](=O)[O-])n1	inactive: 0.485%
COC(=O)C1(C)COP(=O)(Nc2ccccc2)OC1 (stereo unspecified)	inactive: -3.31%
O=[N+]([O-])c1cccc(NC2=NCC(CBr)S2)c1 (stereo unspecified)	inactive: -5.51%
O=C(O)CNc1ccc([As](=O)(O)O)cc1	inactive: 0.356%
O=P1(N(CCCl)CCCl)OCCCS1 (stereo unspecified)	inactive: 8.15%
O=C(Nc1cc([As](=O)(O)O)ccc1O)c1ccccc1	inactive: 5.08%
Nc1ccc([As](=O)(O)c2ccc(N)cc2)cc1	inactive: 5.31%
C[N+]1=C2C=CC=CC=C2SC12C([N+](=O)[O-])=CC([N+](=O)[O-])=C[C-]2[N+](=O)[O-] (stereo unspecified)	inactive: 11.6%
CCN(/C(=N/P(=O)(N1CCOCC1)N1CCOCC1)N1CCOCC1)c1ccc(OC)cc1	inactive: 9.78%
CC(C)c1nc(Nc2ccccc2)n(P(=O)(N(C)C)N(C)C)n1	inactive: 3.16%
CC(C)=N/N=C(\N)N[N+](=O)[O-]	inactive: 2.64%
c1cc(-c2nn[nH]n2)ccc1-c1nn[nH]n1	inactive: -3.94%
COc1ccc(C2=NCC(CBr)S2)cc1 (stereo unspecified)	inactive: 0.083%
O=[N+]([O-])c1cccc2n[nH]nc12	inactive: -5.27%
Cc1ccc(NP(=O)(Oc2ccccc2)Oc2ccccc2)nc1	inactive: 10.7%
O=[N+]([O-])c1cc([N+](=O)[O-])c(CCNc2ccccc2)c([N+](=O)[O-])c1	inactive: 5.26%
Nc1cc(N)c2nonc2c1[N+](=O)[O-]	inactive: -9.94%
CC(C)CC(=O)NC(Sc1ccc(Cl)cc1)C(Cl)(Cl)Cl (stereo unspecified)	inactive: -8.37%
O=C(NC(Sc1ccncn1)C(Cl)(Cl)Cl)c1ccccc1 (stereo unspecified)	inactive: 0.192%
NC(=O)c1cc([N+](=O)[O-])cc([N+](=O)[O-])c1N	inactive: 6.56%
CN(C(=O)Cc1ccc(Cl)c(Cl)c1)[C@H]1CCCC[C@H]1N1CCCC1	inactive: 7.9%

Structure (SMILES)	inhibition
Cc1ccc(N/C(=N/P(=O)(N2CCOCC2)N2CCOCC2)N2CCOCC2)cc1	inactive: -0.743%
Cc1ccc(OP(=O)(Nc2nccs2)Oc2ccc(C)cc2)cc1	inactive: 2.49%
Clc1ccc(Cl)c(NC2=NCC(CBr)S2)c1 (stereo unspecified)	inactive: -1.93%
CCN(N=Nc1nonc1N)c1nonc1N	inactive: 1.57%
Nc1cccc2ccc([As](=O)(O)O)cc12	inactive: 13.8%
CC(=O)Nc1ccc([As](=O)(O)O)cc1	inactive: -5.61%
O=C(O)c1ccccc1[As](=O)(O)O	inactive: 3.45%
CCCC1OP(N)(=O)OCC1CC (stereo unspecified)	inactive: 10%
O=P(Nc1nc2ccc(Cl)cc2s1)(c1ccccc1)c1ccccc1	inactive: -11.5%
Cc1cc(SC(NC(=O)c2ccc(F)cc2)C(Cl)(Cl)Cl)ncn1 (stereo unspecified)	inactive: -0.744%
CN(C(=O)Cc1ccc(Cl)c(Cl)c1)[C@H]1CCCC[C@@H]1N1CCCC1	inactive: -4.78%
Cc1ccc(NP(=O)(Oc2ccccc2F)Oc2ccccc2F)nc1	inactive: -3.54%
Cc1ccc(OP(=O)(Nc2ccccn2)Oc2ccc(C)cc2)cc1	inactive: -3.13%
O=C(OC1CN2CCC1CC2)c1ccccc1 (stereo unspecified)	inactive: -2.79%
CC(NC(=O)COC(=O)C(O)(c1ccccc1)c1ccccc1)c1ccccc1 (stereo unspecified)	inactive: -16.8%
Cc1ccccc1OP(=O)(Nc1ccccn1)Oc1ccccc1C	inactive: 2.18%
O=c1c2cc([N+](=O)[O-])ccc2[nH]c2c([N+](=O)[O-])cc([N+](=O)[O-])cc12	inactive: 9.18%
CN(C)C(=O)Oc1noc2ccccc12	inactive: 1.7%
O=C(NC1CCS(=O)(=O)C1)NP(=S)(Oc1ccccc1)Oc1ccccc1 (stereo unspecified)	inactive: -8.97%
CCNC(=S)/N=C(\N)N[N+](=O)[O-]	inactive: -0.113%
c1ccc(-c2nn[nH]n2)c(-c2nn[nH]n2)c1	inactive: 5.11%
Cc1ccc(NP(=O)(Oc2cccc(C)c2)Oc2cccc(C)c2)nc1	inactive: -11.7%

Structure (SMILES)	inhibition
O=P1(N(CCCl)CCCl)OCCC2CCCCN21 (stereo unspecified)	inactive: -0.644%
CC(=O)c1ccc(N2CC2c2ccncc2)cc1 (stereo unspecified)	inactive: 5.79%
N#C/C(=C\c1ccc(N(CCBr)CCBr)cc1)C(N)=O	inactive: 5.59%
COC(=O)C1(C)COP(=O)(NCc2ccccc2)OC1 (stereo unspecified)	inactive: -7.89%
Cc1ccccc1CN(C)C(=O)COC(=O)C(O)(c1ccccc1)c1ccccc1	inactive: 2.91%
C[C@H]1OP(=O)(Oc2ccccc2)C[C@@H]2O[C@@H]21 (stereo partly specified)	inactive: 3.69%
C[C@@H]1C=CCP(=O)(Oc2ccccc2)O1 (stereo partly specified)	inactive: -1.56%
CC(=O)Nc1ccc([As](=O)(O)O)c(O)c1	inactive: -1.35%
CC(=O)Nc1ccc(Oc2c([N+](=O)[O-])cc([N+](=O)[O-])cc2[N+](=O)[O-])cc1	inactive: 7.84%
CCOc1ccc(C2=NCC(CBr)S2)cc1 (stereo unspecified)	inactive: 1.04%
CCc1cc(O)c([N+](=O)[O-])c(C)c1[N+](=O)[O-]	inactive: 1.3%
CC(C)C(=O)NC(Sc1ccccc1)C(Cl)(Cl)Cl (stereo unspecified)	inactive: 7.4%
c1nnnn1CCn1cnnn1	inactive: -17.9%
O=[N+]([O-])c1ncn(CCn2cnc([N+](=O)[O-])n2)n1	inactive: 1.42%
CC(=O)NC(SC(=S)N(C)C)C(Cl)(Cl)Cl (stereo unspecified)	inactive: -11.4%
O=[As](O)(c1ccccc1)c1ccc(O)cc1	inactive: 3.16%
C/C(N)=N\P(=O)(OCc1ccccc1)OCc1ccccc1	inactive: -4.99%
C(Cc1nn[nH]n1)Cc1nn[nH]n1	inactive: -5.89%
Nc1ccc([As](=O)(O)c2ccc([N+](=O)[O-])cc2)cc1	inactive: 0.703%
COc1ccc(N)c([N+](=O)[O-])c1[N+](=O)[O-]	inactive: 0.515%
Nc1ccc(CCCCOc2ccccc2)cc1	inactive: -5.57%
CN(C)C1(CNC(=O)c2ccc(Cl)c(S(N)(=O)=O)c2)CCCCC1	inactive: -1.99%
